Values of other authors as cited in patent publication US6569404B1, “Phase shift colloids as ultrasound contrast agents” (priority 1993, dated 2003).
Like-named read-outs stand apart in the source and are kept apart here.

Settings: cited from earlier work
[1] = Chemical List of low boiling liquids, Example 45
[2] = boiling point under standard pressure conditions, chemical list arranged by total atoms

Molecule	Boiling Point [1] [degrees Celcius]	Boiling Point [2] [degrees Celcius]
Methane, chloro dinitro	34.0	
Methyldifluoramine		−16
FC(F)(F)OOC(F)(F)F	−32.0	
dimethyl-phosphine		20
